# Measured values published in PMC3539763 (ACS medicinal chemistry letters, 2010).
# Assay: binding to rat plasma
substance,measurement,value
ADX-47273,plasma protein binding,> 98%
